Measurements taken from patent US10617690B2 (priority 2015, dated 2020).

Tested on: arthritis model induced by collagen
Conditions: oral, two consecutive weeks, clinical score

Row | SMILES | therapeutic effect on rheumatoid arthritis of the mice
1 | CN(c1ncnc2[nH]ccc12)N1CCCC(C(=O)NCC(F)(F)F)C1 (stereo not shown) [WX04] | obvious therapeutic effect on rheumatoid arthritis of the mice
2 | CN(c1ncnc2[nH]ccc12)N1CCCC(C(=O)NCC#N)C1 (stereo not shown) [WX07, N-(cyanomethyl)-1-[methyl(7H-pyrrolo[2,3-d]pyrimidin-4-yl)amino]piperidyl-3-formamide] | obvious therapeutic effect on rheumatoid arthritis of the mice
3 | CN(c1ncnc2[nH]ccc12)N1CCC[C@@H](C(=O)NCC(F)(F)F)C1 (single isomer, unassigned) [WX05, (R or S)-1-[methyl(7H pyrrolo[2,3-d]pyrimidin-4-yl)amino]-N-(2,2,2-trifluoroethyl)piperidyl-3-formamide] | obvious therapeutic effect on rheumatoid arthritis of the mice
4 | CN(c1ncnc2[nH]ccc12)N1CCC[C@@H](C(=O)NCC#N)C1 (single isomer, unassigned) [WX08, (R or S)—N-(cyanomethyl-1-[methyl(7H-pyrrolo[2,3-d]pyrimidin-4-yl)amino]piperidyl)-3-formamide] | obvious therapeutic effect on rheumatoid arthritis of the mice
